US7220849B2, “Enhanced gamma-carboxylation of recombinant vitamin K-dependent clotting factor” (The Children's Hospital of Philadelphia, priority 1999, dated 2007)

system: HEK 293 cells; test: rFactor X expression level of stable clones by sandwich ELISA; assay type: cell-based, human
Method: Expression of rFactor X. HEK 293 cells were transfected with pCMV4-ss-pro-II-Factor X using Lipofectamine according to the manufacturer's instructions. Cotransfection with a plasmid containing the neomycin resistance gene and the PACE/furin gene (pcDNA3-PACE; pcDNA3 was obtained from Invitrogen and the PACE cDNA was obtained from Genetics Institute, Boston, Mass.) was performed at a 1:10 molar ratio (pcDNA3-PACE/pCMV4-ss-pro-II-Factor X). Transfectants were selected with the neomycin analogue G418, and resistant colonies were screened for Factor X production by sandwich ELISA as described (Larson et al., 1998, Biochemistry 37:5029). Selected clones were expanded into NUNC cell factories (1264 or 6320 cm^2; Nalge Nunc Int., Naperville, Ill.) and a total of 6–15 liters of conditioned media was collected over 14–21 days. The medium was filtered and made 10 mM benzamidine prior to storage at −20° C.
Expressions Purification and Characterization of a Recombinant Prothrombin Propeptide Factor X Chimeric Protein. The chimeric expression vector, pCMV4-ss-pro-II-wtFactor X, was used to transfect HEK 293 cells. Several clones which were positive for rFactor X by ELISA were selected and subsequently expanded to establish cell lines. Two clones harboring the prothrombin pre-pro-sequence, clone B5 and clone A1, as well as native rwtFactor X (clone D3; described previously in Larson et al., 1998, Biochemistry 37:5029) are described in detail here.

Substance | expression level
rFX-1 D3: native rwtFactor X (FX propeptide, Thr→Arg at −2) expressed in HEK 293 cells, clone D3 | 4.0 μg/10^6 cells/24 hour
rFX-2 A1: rFactor X expressed with the prothrombin pre-pro-sequence in HEK 293 cells, clone A1 | 2.3 μg/10^6 cells/24 hour
rFX-1 B5: rFactor X expressed with the prothrombin pre-pro-sequence in HEK 293 cells, clone B5 | 4.0 μg/10^6 cells/24 hour
